Experiments:
[1] = Blood chemistry and hematology in Sod1 mutant and wild type mice; conditions: CNS-102 12 mg/kg or Riluzole 8 mg/kg oral daily

Compound: Nc1nc2ccc(OC(F)(F)F)cc2s1 [Riluzole]
- survival (in words) (Sod1 mutant mice; SOD1 mice versus vehicle): Longer survival
- Median Survival (Sod1 mutant mice; SOD1 mice, CNS-102 12 mg/kg or riluzole 8 mg/kg daily oral gavage from P38, vehicle 125.0): 129.5 days
- ALBUMIN [1]: 2.7 mg/dL
- A/G RATIO ([1]; blood at P100): 1
- ALBUMIN ([1]; blood at P100): 2700 mg/dL

Reference: US9045403B2, “Geranyl geranyl acetone (GGA) derivatives and compositions thereof” (Coyote Pharmaceuticals, Inc., priority 2012, dated 2015)
